According to US20080138411A1, “Modified Release Formulations Of Selective Serotonin Re-Uptake Inhibitors” (priority 2002, published 2008):

Test: Particle size measurement of Citalopram HBr, Paroxetine HCl and Fluoxetine HCl
Assay type: physicochemical
Conditions: Dist. Base: Volume
Experimental: Particle size measurements were conducted on Paroxetine HCl.

## CNCCC(Oc1ccc(C(F)(F)F)cc1)c1ccccc1.Cl (centres unmarked) [Fluoxetine HCl Provided by Supplier 1]
  Particle size, Mode: 18.600 µm
  Span: (D 20.0-D 10.0)/D50: Span: (D 20.0-D 10.0)/D50 = 0.158
